Data: patent US20180207228A1, “PEPTIDE COMBINATIONS AND USES THEREOF FOR TREATING GRASS ALLERGY” (ALK-Abelló A/S, priority 2015, published 2018)

Legend:
Type in all cases: cell-based, human
[1] = system: allergen specific T cells; test: T cell proliferation assay (72 h) on donor derived T cell lines (TCL02/TCL03); conditions: for Proliferation strength (TCL-02 DK1): T cell lines TCL-02 DK1, strength of response (average relative magnitude); for Proliferation % donor coverage (TCL-02 DK1): T cell lines TCL-02 DK1, 30 donors, hit criteria SI>=2, CPM>=1000
[2] = system: release of IFN-γ upon T cell activation; test: Fluorospot assay, IFN-γ release (DK1-TCL01, US1-TCL01); conditions: head prints TCL-02 DK1; 17 TCL-01 DK1 lines
[3] = system: release of IL-5 upon T cell activation; test: Fluorospot assay, IL-5 release (DK1-TCL01, US1-TCL01); conditions: head prints TCL-02 DK1; text: 25 TCL-01 DK1 lines

Row | Structure (SMILES) | Proliferation strength (TCL-02 DK1) [1] | IFN-gamma % donor coverage (TCL-02 DK1) [2] | IL-5-Fluorospotr % donor coverage (TCL-02 DK1) [3] | Proliferation % donor coverage (TCL-02 DK1) [1]
1 | CC[C@H](C)[C@H](NC(=O)CNC(=O)[C@@H](N)CO)C(=O)N[C@@H](C)C(=O)N[C@@H](Cc1ccccc1)C(=O)NCC(=O)N[C@@H](CO)C(=O)N[C@@H](CCSC)C(=O)N[C@@H](C)C(=O)N[C@@H](CCCCN)C(=O)N[C@@H](CCCCN)C(=O)NCC(=O)N[C@@H](CC(=O)O)C(=O)N[C@@H](CCC(=O)O)C(=O)N[C@@H](CCC(N)=O)C(=O)O [compound 117] | 6.20 | 8.00% | 16.67% | 
2 | C[C@H](NC(=O)CNC(=O)[C@@H](NC(=O)[C@@H]1CCCN1C(=O)[C@H](CCCCN)NC(=O)CNC(=O)[C@H](Cc1ccc(O)cc1)NC(=O)[C@H](Cc1c[nH]c2ccccc12)NC(=O)[C@@H](NC(=O)[C@@H](N)CO)[C@@H](C)O)[C@@H](C)O)C(=O)NCC(=O)N1CCC[C@H]1C(=O)N[C@@H](CCCCN)C(=O)N[C@@H](CC(=O)O)C(=O)N[C@@H](CC(N)=O)C(=O)O [compound 119] | 4.20 | 8.00% | 16.67% | 31.03%
3 | CSCC[C@H](NC(=O)CNC(=O)[C@H](CCCCN)NC(=O)[C@H](CCC(=O)O)NC(=O)[C@@H](NC(=O)[C@H](CC(C)C)NC(=O)[C@H](Cc1ccccc1)NC(=O)[C@H](CCCNC(=N)N)NC(=O)[C@H](Cc1ccccc1)NC(=O)[C@H](CC(N)=O)NC(=O)[C@H](Cc1ccccc1)NC(=O)[C@@H]1CCCN1C(=O)CNC(=O)[C@H](CCC(N)=O)NC(=O)[C@H](CC(C)C)NC(=O)[C@@H]1CCCN1C(=O)[C@@H](N)CCC(=O)O)[C@@H](C)O)C(=O)N[C@@H](CCCCN)C(=O)N[C@@H](CC(N)=O)C(=O)N[C@H](C(=O)O)C(C)C [compound 29] | 1.70 |  |  | 13.33%
